High-throughput results as filed in PubChem.
A selection: hits, their analogues and other compounds. The true share with any hit is near 13%.
miR-21 FLuc = raises the signal of a miR-21 reporter | AID 2288 | 340,000 tested, under 10 active | Potency, µM (series often up to 38.3 µM) | HeLa miR-21 FLuc reporter, luciferase, 48 h; active = well fitted rising curve with a large enough effect; inconclusive = small, poorly fitted or top-dose-only effect; inactive = no such curve, though single readings can be large or run the other way;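 further: miR-21 action dims this reporter so a rising signal means less miR-21 action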
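Luminescence from a firefly luciferase reporter carrying a miR-21 binding site downstream, stably expressed under a CMV promoter in HeLa cells that make miR-21 endogenously, reports miRNA modulation after 48 h compound exposure up to approximately 40uM final.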
Sfp inh = Sfp phosphopantetheinyl transferase inhibition; actives 3.5% (n = 310,000); Q9F4F7; Potency, µM, hits mostly inhibitors; Biochemical Sfp PPTase activity, qHTS;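 note: the enzyme is Sfp with the accession as filed and its product quenches rhodamine fluorescence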
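Reaction rates are the 30-min fluorescence difference (ex 525, em 598 nm) in wells containing 15 nM Sfp, 5 uM rhodamine-CoA and 12.5 uM BHQ-2-YbbR at pH 7.6 with 10 mM MgCl2.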
LMNA splice mod = LMNA splicing modulation; HeLa LMNA splicing GFP/RFP minigene ratio, 48 h; Potency, µM (doses to about 46.1 µM), usual class: inhibitors; actives 0.01% (n = 200,000); active = well fitted inhibition curve with a large enough effect in the signal ratio, with a control signal flat, not every such curve was filed as active; inconclusive = small, poorly fitted or top-dose-only effect, or effect the other way, or a change in a side signal; the % refers to the signal ratio
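Read-out is the ratio of GFP to DsRed2 object intensity, acquired by 488 nm laser-scanning cytometry on HeLa lamin A-EGFP minigene reporter cells. Compound incubation 48 hrs at 37 °C in Opti-MEM with 2% FBS; DMSO 0.5% final.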
KDM4E inh = JMJD2E (human) inhibition; JMJD2E catalytic domain, FDH-coupled NADH fluorescence (FDH is formaldehyde dehydrogenase); AID 2147; Potency, µM (titrated, usually from 57.1 µM), hits mostly inhibitors; actives 1.6% (n = 230,000); active = well fitted inhibition curve with a large enough effect, not every such curve was filed as active; inconclusive = small, poorly fitted or top-dose-only effect, or another doubt; inactive = no such curve, though single readings can be large or run the other way; note: nearly all actives have a fitted effect of over 50% in size
G9a block = G9a (human) methyltransferase inhibition; Q96KQ7; G9a H3K9 monomethylation, AlphaScreen, 2 h; Potency, µM (highest dose often 102 µM), hits mostly inhibitors; actives 8.8% (n = 350,000); note: nearly all actives have a fitted effect of over 75% in size
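Enzyme 20 nM + cpd, 15 min RT; add b-H3K9 pep 500 nM / SAM 20 uM; 2 h RT; anti-H3K9me1 Ab 0.5 ug/mL + SA donor / anti-rabbit acceptor beads 20 ug/mL each, 10 min; AlphaScreen read.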
ALDH1A1 inh = inhibitors of human aldehyde dehydrogenase 1A1 | P00352 | Purified ALDH1A1, NADH fluorescence, propionaldehyde substrate | Potency, µM (doses to about 75.3 µM), actives largely listed as inhibitors | actives 7.3% (n = 220,000) | AID 1030; active = well fitted inhibition curve with a large enough effect, not every such curve was filed as active; inconclusive = small, poorly fitted or top-dose-only effect, or another doubt; inactive = no such curve, though single readings can be large or run the other way
Hits are given with their value; 0 = inactive; ? = inconclusive; - = no result; [ ] = another dose, or the depositor's remark. Unless noted, calls come from the whole dose curve; as a rule, active = well fitted curve in the direction sought with a large enough effect; inconclusive = small, poorly fitted or top-dose-only effect, or another doubt; inactive = no such curve, though single readings can be large; an effect the other way counts as inactive or inconclusive.

SMILES | miR-21 FLuc | Sfp inh | LMNA splice mod | KDM4E inh | G9a block | ALDH1A1 inh
Cc1ccccc1-n1nnnc1SC(C)C(=O)Nc1ccc(N2CCN(C)CC2)cc1 (configuration not stated) | 0 | 0 | - | - | 0[12.7 µM] | -
CCOC(=O)C(=O)Nc1nccs1 | 0 | 0 | 0 | 0 | - | 0
CCOC(=S)SCC(=O)Nc1nc(C)c(C)s1 | 0 | 56µM | - | 0 | 0[12.7 µM] | -
CCOC(=S)SCC(=O)Nc1nccs1 | 0 | 71µM | - | 0 | ? | ?
COc1ccc(C2=NN(C(=O)c3ccccc3)C(c3ccc(OC)c(OC)c3)C2)c(O)c1 (configuration not stated) | 0 | 0 | - | - | 71µM | -
COc1ccc(C2CC(c3ccc(OC)cc3OC(C)=O)=NN2C(=O)c2ccccc2)cc1 (configuration not stated) | 0 | 0 | - | - | 0 | -
O=C(Cn1cnc(S(=O)(=O)N2CCCC2)c1)Nc1cccc(F)c1 | 0 | 0 | 0 | - | 0 | -
Cc1ccc(NC(=O)CNc2ccc(OC(C)C)cc2)cc1 | 0 | 0 | 0 | 0 | 0.79µM | 7.1µM
COc1ccc(NC(=O)CNc2ccc(C#N)cc2)cc1 | 0 | 0 | - | 0 | 50µM | 22µM
Cc1ccc(C(=O)OC(C(=O)O)C(OC(=O)c2ccc(C)cc2)C(=O)O)cc1 (configuration not stated) | - | - | - | - | 0[2.33 µM] | -
CCCCCC(=O)c1ccc(O)cc1O | 0 | 0 | 0 | 0 | 0 | 0
CCC(=O)Oc1ccc(C/C(=N\O)c2ccc(O)cc2O)o1 | 0 | 0 | 0 | 0 | 13µM | ?
O=C1C2C3C=CC(C3)C2C(=O)N1/N=C/c1cn(Cc2ccc(F)cc2)c2ccccc12 (configuration not stated) | 0 | 0 | 0 | 0 | 0 | 25µM
O=C(CNc1ccc2c(c1)OCO2)N/N=C\c1cn(Cc2ccc(F)cc2)c2ccccc12 | 0 | 0 | ? | 0 | 0 | 2µM
O=C(CNc1ccc2c(c1)OCO2)N/N=C\c1cn(Cc2ccccc2)c2ccccc12 | 0 | 0 | ? | 0 | ? | 4.5µM
O=C(CNc1ccccc1)N/N=C/c1ccc2c(c1)OCO2 | 0 | 0 | 0 | 0 | 0 | 0
O=C1C2C3C=CC(C3)C2C(=O)N1/N=C/c1cn(Cc2ccccc2)c2ccccc12 (configuration not stated) | 0 | 0 | 0 | 0 | 0[12.7 µM] | 0
CCOC(=O)N/N=C/c1cn(Cc2ccc(F)cc2)c2ccccc12 | 0 | 0 | - | 0 | 0 | -
Cc1cc(C(=O)NCCc2ccc(S(=O)(=O)NC(=O)NN3CCCCCC3)cc2)no1 | - | ? | - | - | 0 | 0
O=C(c1ccc(S(=O)(=O)N2CCCC2)cc1)N1CCCCC1 | - | - | - | - | 0 | -
O=C(/C=C/c1ccc(O)c(O)c1)c1ccc(S(=O)(=O)N2CCCCCC2)cc1 | 0 | 0 | ? | 28µM | 5µM | ?
Cn1c(=O)n(CCc2ccccc2)c(=O)c2c1nc1n2CCN1c1ccc(Cl)cc1 | 0 | - | 0 | - | 0 | -
Cc1cccc(C(=O)Nc2nnc(S(=O)(=O)N(C)c3ccccc3C)s2)c1 | 0 | - | 0 | - | 3.2µM | -
COc1ccc(-n2c(=O)c(-c3cn(C)c4ccccc34)nc3cncnc32)cc1 | - | 0 | - | - | 0[12.7 µM] | ?
CCN(CC)c1ccc(-c2nc(-c3ccco3)no2)cc1[N+](=O)[O-] | 0 | - | - | - | 0 | -
SMILES | miR-21 FLuc | Sfp inh | LMNA splice mod | KDM4E inh | G9a block | ALDH1A1 inh
O=C(CCC(=O)c1ccc(F)cc1)OCc1nnc(-c2ccc([N+](=O)[O-])cc2)o1 | - | - | - | - | 0[12.7 µM] | -
CCCC(NC(=O)c1c(C)noc1C)C12CC3CC(CC(C3)C1)C2 (configuration not stated) | 0 | 0 | - | 0 | 0 | ?
CCCC(NC(=S)NCC1CCCO1)C12CC3CC(CC(C3)C1)C2 (configuration not stated) | 0 | 0 | - | 0 | 13µM | ?
CC[C@H](NC(=O)c1c(C)c(-c2ccccc2)nc2ccccc12)c1ccccc1 | 0 | 0 | 0 | 0 | 0[12.7 µM] | 5µM
Cc1c(-c2ccccc2)nc2ccccc2c1C(=O)O | 0 | 0 | 0 | 0 | 0 | 0
CCCCCc1cc(=O)oc2c(C(CCN3CCCC(C)C3)c3cc(OC)c(OC)c(OC)c3)c(OC)cc(OC)c12 (configuration not stated) | 0 | 0 | - | ? | ? | -
CCCCCc1cc(=O)oc2c(C(CCN3CCCC(C)C3)c3ccc(N(C)C)cc3)c(OC)cc(OC)c12 (configuration not stated) | ? | 56µM | - | ? | 0[12.7 µM] | -
CCCCCc1cc(=O)oc2c(C(CCN3CCCCC3)c3cc(OC)c(OC)c(OC)c3)c(OC)cc(OC)c12 (configuration not stated) | 0 | 79µM | - | ? | 0 | -
Cc1cc(C)c(NC(=O)C(C)n2c(=O)c(C(F)(F)F)nc3ccccc32)c(C)c1 (configuration not stated) | 0 | - | - | - | 0 | -
CCOc1cccc(-c2nnc3sc(-c4ccco4)nn23)c1 | 0 | 0 | 0 | 0 | 7.9µM | ?
COc1cccc(-c2nn3c(-c4ccco4)nnc3s2)c1 | 0 | 0 | 0 | 0 | 45µM | 3.5µM
CCOc1cccc(-c2nnc3sc(-c4ccc(C)cc4)nn23)c1 | 0 | 0 | 0 | 0 | 0 | 0
COc1cc(-c2nn3c(-c4ccco4)nnc3s2)cc(OC)c1OC | 0 | 0 | 0 | 0 | 0 | 0
COc1cccc(OC)c1-c1nn2c(-c3ccco3)nnc2s1 | 0 | 0 | 0 | 0 | 35µM | ?
CCCN1CCN(c2ncc3c(n2)CCN(Cc2ccc(OC)c(OC)c2OC)C3)CC1 | 0 | - | 0 | - | 0[12.7 µM] | -
Cc1ccc(NC(=O)NNC(=O)CN2C(=O)COc3ccccc32)cc1 | 0 | 0 | - | - | 0 | -
CCOC(=O)C1=C(C)NC2=C(C(=O)C(C(=O)OC)C(C)C2)C1c1ccc(OC)c(O)c1 (configuration not stated) | 0 | 0 | 0 | 0 | 0[0.0925 µM] | 0
CCC(C)OC(=O)C1=C(C)NC2=C(C(=O)C(C(=O)OC)C(C)C2)C1c1ccc(N(C)C)cc1 (configuration not stated) | 0 | 0 | 0 | ? | 5µM | ?
CCCOC(=O)C1=C(C)NC2=C(C(=O)C(C(=O)OC)C(C)C2)C1c1ccc(N(CC)CC)cc1 (configuration not stated) | 0 | 0 | 0 | ? | 3.5µM | ?
CCN(CC)c1ccc(C2C(C(=O)OCCOC(C)C)=C(C)NC3=C2C(=O)CCC3)cc1 (configuration not stated) | 0 | 0 | 0 | ? | 10µM | ?
COc1ccc(C(CNC(=O)c2ccc(S(=O)(=O)N3CCOCC3)cc2)N2CCCCC2)cc1 (configuration not stated) | 0 | 0 | ? | 0 | 0 | ?
CN(C)c1ccc(C(CNC(=O)c2ccc(-c3ccccc3)cc2)N2CCOCC2)cc1 (configuration not stated) | - | - | - | - | 14µM | -
CCN(CC)S(=O)(=O)c1ccc(C(=O)NCC(c2ccc(OC)cc2)N2CCOCC2)cc1 (configuration not stated) | 0 | 0 | 0 | 0 | 0 | 0.71µM
